# PubChem BioAssay AID602162 (NMMLSC, 2011)
# The chains behind the UniProt entries cited, without tags or fusion partners.
# UniProt Q9NP58, whole entry: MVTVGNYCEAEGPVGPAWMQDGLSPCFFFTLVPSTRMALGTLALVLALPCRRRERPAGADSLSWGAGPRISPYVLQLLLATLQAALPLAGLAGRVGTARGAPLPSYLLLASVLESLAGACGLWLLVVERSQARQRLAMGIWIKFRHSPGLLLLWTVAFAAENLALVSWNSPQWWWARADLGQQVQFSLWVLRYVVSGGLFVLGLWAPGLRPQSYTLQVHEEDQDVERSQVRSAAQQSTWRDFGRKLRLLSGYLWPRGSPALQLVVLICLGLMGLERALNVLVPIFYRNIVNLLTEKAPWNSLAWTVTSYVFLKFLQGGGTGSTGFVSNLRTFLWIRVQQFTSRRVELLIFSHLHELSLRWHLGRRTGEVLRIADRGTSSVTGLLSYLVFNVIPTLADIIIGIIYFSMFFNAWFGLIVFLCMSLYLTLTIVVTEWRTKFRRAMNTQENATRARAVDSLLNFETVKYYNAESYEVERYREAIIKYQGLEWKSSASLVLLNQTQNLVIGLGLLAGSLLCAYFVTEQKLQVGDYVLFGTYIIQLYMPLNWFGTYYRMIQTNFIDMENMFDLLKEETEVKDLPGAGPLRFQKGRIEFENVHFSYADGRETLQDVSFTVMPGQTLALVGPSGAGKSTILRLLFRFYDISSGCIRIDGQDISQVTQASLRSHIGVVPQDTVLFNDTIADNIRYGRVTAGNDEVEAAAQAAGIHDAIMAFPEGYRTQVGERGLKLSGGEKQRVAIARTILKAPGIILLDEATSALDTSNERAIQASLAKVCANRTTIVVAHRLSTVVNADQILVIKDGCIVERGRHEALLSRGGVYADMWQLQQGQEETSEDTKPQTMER
# The list shows a part of the results, in another mix than the full data. Some structures show a salt or complex split into parts, the way the source records it. Active and inactive are the calls of the source.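 The calls were made as follows: active = fluorescence ratio to DMSO below 75%, the collection mean minus 3 SD; inconclusive = too few cells collected in the well; inactive = the rest.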
# Target: ATP-binding cassette sub-family B member 6 (Homo sapiens) (UniProt Q9NP58)
# Experiment: ABCB6 transporter inhibitors, primary screen, K562-ABCB6 cells, flow cytometry, MLPCN library (AID 602162);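 also: signal is porphyrin accumulated inside mitochondria; 100% equals median channel fluorescence of DMSO control wells; lower ratio means ABCB6 inhibition with less porphyrin fluorescence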
# Conditions: K562-ABCB6 porphyrin accumulation, 1 h, at 10 µM, hits give low values
row,SMILES,fluorescence ratio to DMSO
1,CP(=S)(Nn1cnnc1)Oc1ccccc1 (stereo not drawn),inactive: 99%
2,CP(=O)(Nc1ccccc1Br)Oc1ccccc1 (stereo not drawn),inactive: 98%
3,COc1ccccc1OP(C)(=O)Nc1ccccc1 (stereo not drawn),inactive: 100%
4,O=[N+]([O-])c1cc([N+](=O)[O-])c(O)c([N+](=O)[O-])c1.c1ccc(Oc2ccncc2)cc1,inactive: 99%
5,CCOC(=O)c1ccc(NP(C)(=O)Oc2ccc(OC)cc2)cc1 (stereo not drawn),inactive: 95%
6,CCOP(C)(=S)SCC(=O)NC(C)C(=O)O (stereo not drawn),inactive: 103%
7,CP(=O)(Nc1ccccn1)Oc1ccc(Cl)cc1 (stereo not drawn),inactive: 97%
8,CP(=O)(Nc1ccc(SC(F)(F)F)cc1)Oc1ccc(Cl)cc1 (stereo not drawn),inactive: 97%
9,Cc1ccc(Nc2c([N+](=O)[O-])cc([N+](=O)[O-])cc2[N+](=O)[O-])cc1,inactive: 93%
10,Cc1cccc(C)c1OP(C)(=O)Nc1ccc(SC(F)(F)F)cc1 (stereo not drawn),inactive: 100%
11,CP(=O)(Oc1ccccc1)OC(c1ccccc1)C(F)(F)F (stereo not drawn),inactive: 96%
12,CP(=O)(NC(=O)Nc1ccccc1)Oc1ccccc1 (stereo not drawn),inactive: 98%
13,CCc1ccc(OP(C)(=O)N2CCN(c3ccc([N+](=O)[O-])cc3)CC2)cc1 (stereo not drawn),inactive: 97%
14,Cc1cc(C)cc(OP(C)(=O)Nc2ccc(SC(F)(F)F)cc2)c1 (stereo not drawn),inactive: 99%
15,COc1ccccc1-c1ccccn1.O=[N+]([O-])c1cc([N+](=O)[O-])c(O)c([N+](=O)[O-])c1,inactive: 93%
16,CCN(CC)CCCOC(=O)C(O)(c1ccccc1)c1ccccc1,inactive: 96%
17,COc1ccccc1OP(C)(=O)Nc1ccc(C)cc1 (stereo not drawn),inactive: 93%
18,Cc1ccc(NP(C)(=O)Oc2ccccc2)c(C)c1 (stereo not drawn),inactive: 95%
19,CCOC(=O)c1ccc(NP(C)(=O)Oc2ccccc2)cc1 (stereo not drawn),inactive: 100%
20,Cc1cc(C)cc(OP(C)(N)=O)c1 (stereo not drawn),inactive: 98%
21,COc1ccccc1OP(C)(=O)Nc1cc(Cl)ccc1C (stereo not drawn),inactive: 102%
22,COc1ccc(OP(C)(=O)Nc2cccc(F)c2)cc1 (stereo not drawn),inactive: 98%
23,O=[N+]([O-])c1cc([N+](=O)[O-])c(Nc2cccnc2)c([N+](=O)[O-])c1,inactive: 96%
24,O=[N+]([O-])c1ccc2c(c1)C=Nc1ccccc1O2,inactive: 99%
25,CC(C)(C)c1ccc(OP(C)(=O)Nc2ccc(SC(F)(F)F)cc2)cc1 (stereo not drawn),inactive: 102%

row,SMILES,fluorescence ratio to DMSO
1,Cc1cccc(C)c1OP(C)(N)=O (stereo not drawn),inactive: 104%
2,CC1=NCCc2c1[nH]c1ccccc21.O=[N+]([O-])c1cc([N+](=O)[O-])c(O)c([N+](=O)[O-])c1,inactive: 102%
3,O=C(O)c1cccc(Nc2c([N+](=O)[O-])cc([N+](=O)[O-])cc2[N+](=O)[O-])c1,inactive: 102%
4,Cc1ccc(C)c(NP(C)(=O)Oc2ccccc2)c1 (stereo not drawn),inactive: 91%
5,Cc1cc(C)cc(OP(C)(=O)Nc2ccccn2)c1 (stereo not drawn),inactive: 98%
6,CP(=O)(Nc1cccc(Br)c1)Oc1ccccc1 (stereo not drawn),inactive: 98%
7,COc1ccccc1OP(C)(=O)Nc1cccc(Br)c1 (stereo not drawn),inactive: 97%
8,CCOC(=O)c1ccc(NP(C)(=O)Oc2cc(C)cc(C)c2)cc1 (stereo not drawn),inactive: 99%
9,Cc1cc(C)cc(OP(C)(=O)Nc2ccc(C)cc2C)c1 (stereo not drawn),inactive: 97%
10,O=[N+]([O-])c1cc([N+](=O)[O-])c(-c2cnn(-c3ccccc3)c2)c([N+](=O)[O-])c1,inactive: 96%
11,Cc1nc2ccc3ccccc3c2s1.O=[N+]([O-])c1cc([N+](=O)[O-])c(O)c([N+](=O)[O-])c1,inactive: 151%
12,O=[N+]([O-])c1cc([N+](=O)[O-])c(-n2nnc3ccccc32)c([N+](=O)[O-])c1,inactive: 95%
13,CN(Cc1cccnc1)C(=O)COc1ccc(Cl)c(Cl)c1.O=[N+]([O-])c1cc([N+](=O)[O-])c(O)c([N+](=O)[O-])c1,inactive: 97%
14,CN1CCCCC1COC(=O)C1(O)c2ccccc2CCc2ccccc21 (stereo not drawn),inactive: 95%
15,COc1ccccc1OP(C)(=O)Nc1c(C)cccc1C (stereo not drawn),inactive: 90%
16,COc1ccc(-c2ccccn2)cc1.O=[N+]([O-])c1cc([N+](=O)[O-])c(O)c([N+](=O)[O-])c1,inactive: 99%
17,CCCOc1ccc(NP(C)(=O)Oc2ccc(Cl)cc2)cc1 (stereo not drawn),inactive: 98%
18,CP(=O)(Nc1ccc(SC(F)(F)F)cc1)Oc1ccccc1 (stereo not drawn),inactive: 96%
19,CC1=C2N=C(C=C3N=C(C(C)=C4[N-][C@@](C)([C@@H]5N=C1[C@](C)(CCC(=O)NC[C@@H](C)OP(=O)([O-])O[C@H]1[C@@H](O)[C@@H](n6cnc7cc(C)c(C)cc76)O[C@@H]1CO)[C@H]5CC(N)=O)[C@@](C)(CC(N)=O)[C@@H]4CCC(N)=O)[C@@](C)(CC(N)=O)[C@@H]3CCC(N)=O)C(C)(C)[C@@H]2CCC(N)=O.[C-]#N.[Co+3],inactive: 93%
20,O=[N+]([O-])c1cc([N+](=O)[O-])c(Nc2nnnn2CCO)c([N+](=O)[O-])c1,inactive: 102%
21,CCOC(=O)C(CC)C1=NC(C)(C)Cc2ccccc21.O=[N+]([O-])c1cc([N+](=O)[O-])c(O)c([N+](=O)[O-])c1 (stereo not drawn),inactive: 100%
22,O=[N+]([O-])c1ccc(OP2(=O)COCCO2)cc1 (stereo not drawn),inactive: 98%
23,Cc1cc(-c2cccc3ccccc23)c(C)cn1.O=[N+]([O-])c1cc([N+](=O)[O-])c(O)c([N+](=O)[O-])c1,inactive: 96%
24,O=[N+]([O-])c1cc([N+](=O)[O-])c(NCC2CCS(=O)(=O)C2)c([N+](=O)[O-])c1 (stereo not drawn),inactive: 104%
25,Cc1c(C(c2ccc3c(c2)OCO3)c2c(C)n(C)n(-c3ccccc3)c2=O)c(=O)n(-c2ccccc2)n1C.O=[N+]([O-])c1cc([N+](=O)[O-])c(O)c([N+](=O)[O-])c1,inactive: 100%

row,SMILES,fluorescence ratio to DMSO
1,COc1ccc(OP(C)(=O)Nc2cccc(Br)c2)cc1 (stereo not drawn),inactive: 98%
2,CN(C)CCOC(=O)C(O)(c1ccccc1)C1CCCCC1 (stereo not drawn),inactive: 101%
3,COc1ccc(NP(C)(=O)Oc2ccccc2OC)cc1 (stereo not drawn),inactive: 168%
4,CP(=O)(Nc1ccc2c(c1)OCCO2)Oc1ccccc1 (stereo not drawn),inactive: 97%
5,Cc1ccccc1NP(C)(=O)Nc1ccccc1C,inactive: 99%
6,O=[N+]([O-])c1cc([N+](=O)[O-])c(C(F)(F)F)c([N+](=O)[O-])c1O,inactive: 96%
7,CP(=O)(Nc1ccc(SC(F)(F)F)cc1)Oc1ccc(F)cc1 (stereo not drawn),inactive: 100%
8,CCOP(C)(=S)SCC(=O)NC(C)(CC)C(=O)O (stereo not drawn),inactive: 97%
9,O=C(OC1CN2CCC1CC2)c1ccc([N+](=O)[O-])cc1 (stereo not drawn),inactive: 101%
10,O=C(OCCN1CCN(CCOCc2ccccc2)CC1)C(O)(c1ccccc1)c1ccccc1,inactive: 94%
11,COc1ccc2c(c1O)-c1c(O)c(OC)cc3c1[C@H](C2)[N+](C)(C)CC3.O=[N+]([O-])c1cc([N+](=O)[O-])c([O-])c([N+](=O)[O-])c1[O-],inactive: 97%
12,O=[N+]([O-])c1cc([N+](=O)[O-])c(Nc2ccc(Cl)cc2)c([N+](=O)[O-])c1,inactive: 97%
13,CP(=O)(Nc1ccccc1F)Oc1ccccc1 (stereo not drawn),inactive: 104%
14,CC(C)c1ccc(OP(C)(=O)Nc2ccc(SC(F)(F)F)cc2)cc1 (stereo not drawn),inactive: 92%
15,Cc1c([N+](=O)[O-])cc([N+](=O)[O-])c(Br)c1[N+](=O)[O-],inactive: 100%
16,CCN(CC)CCCOC(=O)C(O)(c1ccccc1)C1CCCCC1 (stereo not drawn),inactive: 100%
17,CP(=O)(Nc1ccccc1)Oc1ccc(F)cc1 (stereo not drawn),inactive: 106%
18,CCCCCOc1ccc(NP(C)(=O)Oc2ccc(Cl)cc2Cl)cc1 (stereo not drawn),inactive: 99%
19,O=[N+]([O-])c1cc([N+](=O)[O-])c(OC2CCCCC2O)c([N+](=O)[O-])c1 (stereo not drawn),inactive: 99%
20,CCN(CC)CCCNc1ccccc1[N+](=O)[O-].O=[N+]([O-])c1cc([N+](=O)[O-])c(O)c([N+](=O)[O-])c1,inactive: 98%
21,CCOC(=O)c1ccc(NP(C)(=O)Oc2ccc(F)cc2)cc1 (stereo not drawn),inactive: 97%
22,COc1ccc(OP(C)(=O)Nc2ccc(SC(F)(F)F)cc2)cc1 (stereo not drawn),inactive: 97%
23,CCCCCCCCCCCCCCCC1C[N+](C)(C)CCOP(C)(=O)O1 (stereo not drawn),inactive: 116%
24,CP(=O)(Nc1ccc(Cl)cc1Cl)Oc1ccccc1 (stereo not drawn),inactive: 95%
25,CP(=O)(OCCOc1ccccc1)OCCOc1ccccc1,inactive: 97%

row,SMILES,fluorescence ratio to DMSO
1,O=C1C(O)=C([N+](=O)[O-])C(=O)C(O)=C1[N+](=O)[O-],inactive: 100%
2,Cc1cc(C)cc(OP(C)(=O)Nc2cccc(C(F)(F)F)c2)c1 (stereo not drawn),inactive: 99%
3,COc1ccccc1OP(C)(=O)Nc1ccc(C)c(C)c1 (stereo not drawn),inactive: 101%
4,COc1ccc(OP(C)(=O)Nc2ccccc2Br)cc1 (stereo not drawn),inactive: 96%
5,Cc1c(NP(C)(=O)Oc2ccc(C(C)C)cc2)c(=O)n(-c2ccccc2)n1C (stereo not drawn),inactive: 87%
6,CP(=O)(Nc1ccccn1)Oc1ccccc1 (stereo not drawn),inactive: 91%
7,COc1ccccc1OP(C)(=O)Nc1ccc(C)cc1C (stereo not drawn),inactive: 87%
8,CCc1ccc(OP(C)(=O)O)cc1,inactive: 148%
9,COc1ccccc1OP(C)(=O)Nc1ccc(Br)cc1 (stereo not drawn),inactive: 94%
10,COc1ccc(OP(C)(=O)Nc2ccccn2)cc1 (stereo not drawn),inactive: 98%
11,CN(C)CCOC(=O)C(O)(c1ccccc1)C1CCCC1 (stereo not drawn),inactive: 92%
12,COc1ccccc1OP(C)(=O)Nc1ccccc1Br (stereo not drawn),inactive: 96%
13,CC(C)(C)c1ccc(OP(C)(=O)O)cc1,inactive: 94%
14,CP(=O)(Nc1ccc(Cl)cc1)Oc1ccc(F)cc1 (stereo not drawn),inactive: 98%
15,CN(C)C(=O)c1c([N+](=O)[O-])cc([N+](=O)[O-])cc1[N+](=O)[O-],inactive: 113%
16,CCN(CC)CC(O)COC(=O)C(O)(c1ccccc1)C1CCCCC1 (stereo not drawn),inactive: 105%
17,COc1ccc(OP(C)(=O)Nc2ccc(Br)cc2)cc1 (stereo not drawn),inactive: 102%
18,COc1ccccc1OP(C)(=O)Nc1c(C)n(C)n(-c2ccccc2)c1=O (stereo not drawn),inactive: 97%
19,O=C(OCCCN1CCCC1)C(O)(c1ccccc1)C1CCCCC1 (stereo not drawn),inactive: 99%
20,CP(=O)(Oc1ccccc1)N1CCOC1=O (stereo not drawn),inactive: 100%
21,CCc1ccc(OP(C)(=O)Nc2cccnc2)cc1 (stereo not drawn),inactive: 99%
22,CCOC(=O)c1ccc(NP(C)(=O)Oc2ccc(Cl)cc2)cc1 (stereo not drawn),inactive: 95%
23,CP(=O)(OC12CC3CC(CC(C3)C1)C2)OC12CC3CC(CC(C3)C1)C2,inactive: 94%
